The subject of experiment [1] is CMK (an Acute Megakaryoblastic Leukemia (AMKL) cell line). The experiment in a line: Cancer cell line proliferation analysis (CellTiter-Glo), CMK. The class given is cell-based. The settings on record: Homo sapiens; CMK cells, 72 hours at 37° C., cell viability; read-out: Cancer cell lines IC50 (nM) CMK. As to the method: (§1) Cell Proliferation Analysis
(§2) CellTiter-Glo® Luminescent cell viability assay (Promega) was used to assess cell survival following treatment with the compounds described herein. Cells were seeded into 384 well plates with the EL406 Combination Washer Dispenser (BioTek Instruments, Inc.), and the compounds were injected into the cells culture media with the JANUS Automated Workstation (PerkinElmer Inc.). Cells were treated with a series diluted inhibitors (20 to 0.04 μM) for 72 hours at 37° C. Luminescent measurement is performed using the 2104 Envision® Multilabel Reader (PerkinElmer Inc.). The cell lines employed include Ba/F3 (a murine interleukin-3 dependent pro-B cell line), NKL (a Natural Killer Cell Lymphoma (NKCL) cell line), CMK (an Acute Megakaryoblastic Leukemia (AMKL) cell line).
A general note: Cellular ATP, detected with luciferase, serves as a proxy for viable cell number.

Sequences of proteins named here, by UniProt entry; tags and fusion partners are left off. A change or cut given only in a name is not applied to a line headed by its entry.
UniProt P52333: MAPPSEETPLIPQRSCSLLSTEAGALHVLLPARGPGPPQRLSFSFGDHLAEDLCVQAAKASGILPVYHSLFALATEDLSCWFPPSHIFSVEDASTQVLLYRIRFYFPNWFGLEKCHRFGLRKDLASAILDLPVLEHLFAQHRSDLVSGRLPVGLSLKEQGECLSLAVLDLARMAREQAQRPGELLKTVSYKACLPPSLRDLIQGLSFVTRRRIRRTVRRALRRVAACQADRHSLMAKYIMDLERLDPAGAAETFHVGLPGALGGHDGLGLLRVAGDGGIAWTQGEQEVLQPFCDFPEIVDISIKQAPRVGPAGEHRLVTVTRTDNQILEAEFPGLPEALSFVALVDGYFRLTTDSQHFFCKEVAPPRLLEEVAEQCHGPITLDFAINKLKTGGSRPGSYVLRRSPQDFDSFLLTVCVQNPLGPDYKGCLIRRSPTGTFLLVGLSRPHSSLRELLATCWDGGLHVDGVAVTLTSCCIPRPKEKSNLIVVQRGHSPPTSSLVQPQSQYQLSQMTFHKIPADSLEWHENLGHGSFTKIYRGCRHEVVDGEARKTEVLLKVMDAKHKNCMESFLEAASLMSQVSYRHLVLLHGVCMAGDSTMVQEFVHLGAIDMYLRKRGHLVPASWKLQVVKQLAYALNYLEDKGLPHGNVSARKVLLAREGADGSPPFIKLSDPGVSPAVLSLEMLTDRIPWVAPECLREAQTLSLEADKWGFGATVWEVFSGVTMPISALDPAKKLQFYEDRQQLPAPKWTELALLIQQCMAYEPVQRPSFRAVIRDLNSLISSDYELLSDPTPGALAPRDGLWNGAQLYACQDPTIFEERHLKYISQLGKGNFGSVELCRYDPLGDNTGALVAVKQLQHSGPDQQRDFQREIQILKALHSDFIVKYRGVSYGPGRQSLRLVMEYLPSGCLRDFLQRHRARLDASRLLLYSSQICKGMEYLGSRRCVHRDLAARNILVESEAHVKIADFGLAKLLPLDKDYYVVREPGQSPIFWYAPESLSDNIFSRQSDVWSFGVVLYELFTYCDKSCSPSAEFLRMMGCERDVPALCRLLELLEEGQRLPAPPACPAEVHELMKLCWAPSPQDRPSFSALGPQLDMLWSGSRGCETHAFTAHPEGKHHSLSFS

The next experiment concerns the target JAK3 (Homo sapiens (Human), UniProt P52333). The experiment in a line: INVITROGEN Select Screening in vitro kinase activity assay. The class given is biochemical. To be noted: enzymatic. From the text:
The in vitro activity of the compounds described herein in inhibiting JAK3 and other kinases were obtained using an INVITROGEN Select Screening assay as known in the art.

The next experiment relates to Ba/F3 JAK3. The experiment is described as follows: Ba/F3 cell proliferation analysis (CellTiter-Glo), JAK3. The class given is cell-based, murine. The settings on record: Mus musculus, BaF3, 72 h, Ba/F3 cells, 72 hours at 37° C., cell viability. As to the method: as §1, §2
The subject of a further experiment is Ba/F3 JAK1. The experiment is described as follows: Ba/F3 cell proliferation analysis (CellTiter-Glo), JAK1. The class given is cell-based, murine. To be noted: Mus musculus, BaF3; Ba/F3 cells, 72 hours at 37° C., cell viability. As to the method: as §1, §2
A further experiment concerns Ba/F3 ABL. The experiment in a line: Ba/F3 cell proliferation analysis (CellTiter-Glo), ABL. The class given is cell-based, murine. To be noted: Mus musculus, BaF3; Ba/F3 cells, 72 hours at 37° C., cell viability. As to the method:
as §1
as §2, with “Luminescent measurement is performed using the 2104 Envision® Multilabel Reader (PerkinElmer Inc.).” left out

For the next experiment, the system named is Ba/F3 JAK2. The experiment is described as follows: Ba/F3 cell proliferation analysis (CellTiter-Glo), JAK2. It is filed as cell-based, murine. To be noted: Mus musculus, BaF3; Ba/F3 cells, 72 hours at 37° C., cell viability. As to the method:
as §1
as §2, with “Luminescent measurement is performed using the 2104 Envision® Multilabel Reader (PerkinElmer Inc.).” left out

The IC50 is the concentration that gives 50% inhibition.

For the compound `C=CC(=O)Nc1cccc(CNc2nc(Nc3ccc(N4CCN(CCNC(=O)CC5[C@H]6C[C@@H]7C[C@@H](C[C@H]5C7)C6)CC4)cc3OC)ncc2Cl)c1` (some centres unmarked) [Compound 1], the concentration for half-maximal inhibition (IC50) came to 726 nM in experiment [1], 55.5 nM against JAK3 and 482 nM with Ba/F3 JAK3.

Turning to `C=CC(=O)Nc1cccc(CNc2nc(Nc3ccc(N4CCN(CCCNC(=O)CC5[C@H]6C[C@@H]7C[C@@H](C[C@H]5C7)C6)CC4)cc3OC)ncc2Cl)c1` (some centres unmarked) [Compound 2], the IC50 is 3350 nM in the experiment on Ba/F3 JAK1, 3040 nM in the experiment with Ba/F3 ABL and 3110 nM in the experiment on Ba/F3 JAK2.

On to `C=CC(=O)Nc1cccc(CNc2nc(Nc3cnn(CCN4CCN(C(=O)CC5[C@H]6C[C@@H]7C[C@@H](C[C@H]5C7)C6)CC4)c3)ncc2Cl)c1` (some centres unmarked) [Compound 5], for which the IC50 stood at 1970 nM in the experiment with Ba/F3 ABL and 1370 nM in the experiment with Ba/F3 JAK2.

For the origin of these results see patent US9862688B2, “Hydrophobically tagged janus kinase inhibitors and uses thereof” (Dana-Farber Cancer Institute, Inc., priority 2014, dated 2018).
